One test is filed under the species Homo sapiens. Put plainly: Ratio of Ki for IRAK-1 (unknown origin) to Ki for recombinant full length IRAK-4 (unknown origin).
As to `O=C(Nc1nc2cc(CN3CCCCC3)ccc2n1[C@H]1CC[C@@H](CO)CC1)c1cccc(C(F)(F)F)c1`, the Ratio Ki came to 171.

For `O=C(Nc1nc2cc(CN3CCCCC3)ccc2n1-c1ccc(CCO)cc1)c1cccc(C(F)(F)F)c1`, the Ratio Ki is 9.

As for `O=C(Nc1nc2cc(CN3CCCCC3)ccc2n1-c1ccccc1)c1cccc(C(F)(F)F)c1`, the Ratio Ki was determined as 217.

For the compound `O=C(Nc1nc2cc(CN3CCCCC3)ccc2n1-c1ccccc1)c1cccc([N+](=O)[O-])c1`, the Ratio Ki is 46.

For another test, the species on record is Homo sapiens. Kind of test: Ratio of Ki for TAK1 (unknown origin) to Ki for recombinant full length IRAK-4 (unknown origin).
On to `O=C(Nc1nc2cc(CN3CCCCC3)ccc2n1[C@H]1CC[C@@H](CO)CC1)c1cccc(C(F)(F)F)c1`, for which the Ratio Ki was found to be 310.

With `O=C(Nc1nc2cc(CN3CCCCC3)ccc2n1-c1ccc(CCO)cc1)c1cccc(C(F)(F)F)c1`, the Ratio Ki was 538.

Regarding `O=C(Nc1nc2ccc(CO)cc2n1[C@H]1CC[C@@H](CO)CC1)c1cccc(C(F)(F)F)c1`, the Ratio Ki amounted to 2710.

As to `CC(C)(C)C(=O)Nc1ccc2c(c1)nc(NC(=O)c1cccc(C(F)(F)F)c1)n2[C@H]1CC[C@@H](CO)CC1`, the Ratio Ki is 7350.

Take `O=C(Nc1nc2cc(CN3CCCCC3)ccc2n1-c1ccccc1)c1cccc(C(F)(F)F)c1`: the Ratio Ki turned out to be 892.

On to `O=C(Nc1nc2cc(CN3CCCCC3)ccc2n1-c1ccccc1)c1cccc([N+](=O)[O-])c1`, for which the Ratio Ki came to 98.

These data come from ChEMBL document CHEMBL3734693, “Discovery of potent, selective, and orally bioavailable inhibitors of interleukin-1 receptor-associate kinase-4” (Bioorg Med Chem Lett, 2015).
